Measured values reported in patent publication US11656182B2, “Method, composition, and chip for detecting analyte in blood sample” (TERUMO KABUSHIKI KAISHA, priority 2016, dated 2023).

Assay: Degree of solubility with respect to water at 20° C.
Assay type: physicochemical

Compound	Degree of solubility (class)
O=[N+]([O-])c1ccc(-[n+]2nc(-c3ccc(S(=O)(=O)[O-])cc3S(=O)(=O)[O-])nn2-c2ccc(I)cc2)cc1.[Na+] [Wst-1, 2-(4-iodophenyl)-3-(4-nitrophenyl)-5-(2,4-disulfophenyl)-2H-tetrazolium sodium salt, reference compound]	×
COc1cc([N+](=O)[O-])ccc1-n1nc(-c2ccc(S(=O)(=O)[O-])cc2S(=O)(=O)[O-])n[n+]1-c1ccc([N+](=O)[O-])cc1.[Na+] [Wst-8, 2-(2-methoxy-4-nitrophenyl)-3-(4-nitrophenyl)-5-(2,4-disulfophenyl)-2H-tetrazolium sodium salt, reference compound]	×
